In US11872324B2, “Materials and methods for tissue regeneration” (The University Court of the University of Glasgow, priority 2015, dated 2024):

What was measured:
[1] = tested on: integrin β1 and BMP-2 receptor BMPRIA; test: Co-immunoprecipitation of integrin β1 and BMPRIA; assay type: cell-based, human; conditions: hMSCs, 45 min; BMP-2 presented via the FN network assembled on PEA
Procedure: (§1) Human bone marrow mesenchymal stem cells (hMSCs) from Promocell were maintained in basal media (αMEM, 10% FBS, 1% P/S, 1% fungizone, 2 mM L-glutamine, 1 ng/ml FGF-2) at 37° C. with 5% CO2. Cells were seeded onto the materials at 10^4 cells/cm2 using seeding media (DMEM high glucose, 1% P/S, 1% FBS,) and media were changed twice a week. For all cultures the first 2 hours (initial cell adhesion) were in absence of serum and GF. Cells were used at passages P0-P3. Each experiment was performed in triplicate.
After 45 minutes of cell culture, cell lysates (RIPA buffer) were used to perform immunoprecipitation of integrin β1 and BMP-2 receptor BMPRIA. 15 μg of protein were collected using NanoDrop (ThermoScientific). First, an integrin β1 antibody (Abcam, 183666, 10 ul/reaction) was used together with protein A-agarose beads (SantaCruz Biotechnology, sc-2001). Then, after denaturation and elution of beads, samples were run in NuPAGE 4-12% bis-tris gels (Life Technologies). A mouse BMPRIA antibody was used to probe the membrane (Abcam, 166707, 1:1000). An anti-mouse secondary antibody was used (SantaCruz Biotechnology, sc-2031, 1:5000). The enhanced chemiluminescence detection system (GE Healthcare) was used prior to exposing the blot to X-ray.

[2] = tested on: ERK 1/2; test: Phosphorylated ERK 1/2 phospho-ELISA in hMSCs; assay type: cell-based, human; conditions: 45 min, BMP-2 sequestered on FN fibrils vs soluble BMP-2 in medium
Procedure: as §1
Phosphorylated ERK 1/2 was quantified using phospho-ELISA kits. Briefly, ELISA plates were coated with a capture antibody for ERK 1/2 and then incubated with cell lysates after 45 minutes of cell culture. Phosphorylated states were detected with an anti-phospho-tyrosine antibody and normalised to a standard according to manufacturer instructions (DYC1018B, R&D Systems).

[3] = tested on: Human bone marrow mesenchymal stem cells (hMSCs); test: Osteogenic differentiation of hMSCs (qPCR and immunofluorescence for osteocalcin, osteonectin); assay type: cell-based; conditions: 14 days, BMP-2 adsorbed on FN fibrils on PEA vs soluble GF
Procedure: as §1
After 14 days of culture cells were washed in DPBS and fixed with 4% formaldehyde in DPBS at 37° C. for 15 minutes. Afterwards, the samples were rinsed in DPBS and a permeabilising buffer (10.3 g sucrose, 0.292 g NaCl, 0.06 g MgCl2, 0.476 g Hepes buffer, 0.5 mL Triton X, in 100 mL PBS, pH 7.2) was added at 4° C. for 5 minutes. The samples were then saturated with 1% BSA/DPBS at 37° C. for 5 minutes. […] A Zeiss fluorescence microscope was used for imaging.
Cells were cultured on materials for 14 days. Following the same procedure as for SMAD protein expression, osteogenesis differentiation was analysed to assess the expression of osteocalcin (OCN) and osteonectin (ON) using GAPDH to normalize gene expression.

[4] = tested on: SMAD-1, SMAD-1/5; test: SMAD phosphorylation western blot in hMSCs; assay type: cell-based, human; conditions: 45 min
Procedure: as §1
Cell lysates (RIPA buffer) after 45 minutes of culture were used. 10 μg of proteins were collected per sample. Western blot assays were run in denaturalising conditions for SMAD-1, SMAD-1/5 and GAPDH. NuPAGE 4-12% bis-tris gels were purchased from LifeTechnologies. pSMADDs antibodies (pSMAD-1 & pSMAD-1/5) were obtained from Cell Signaling Technology (12656, 1:1000). As secondary antibody an antirabbit IgG antibody (Cell Signaling Technology, #7074, 1:2000) was used. A substrate for sensitive immunodetection system (Novex, Life Technologies) was used prior to exposing the blot to X-ray. Protein expression was quantified by image analysis using ImageJ.

[5] = Release/stability of adsorbed BMP-2 by sandwich ELISA; assay type: physicochemical; conditions: from FN-coated PEA and PMA surfaces, after 14 days
Procedure: Both on bare or FN coated surfaces, the amount of non-adsorbed growth factor remaining in the supernatant was measured via a sandwich ELISA (DY355, R&D) following manufacturer instructions. The standard curve was calculated using a 4-PL curve-fit (Prism). For stability studies, the release of the BMP-2 was measured at 10 different time points (2 h, 1, 2, 3, 4, 5, 6, 7, 11, 14 days) using the same sandwich ELISA.

[6] = tested on: Human bone marrow mesenchymal stem cells (hMSCs); test: Alkaline phosphatase staining of hMSCs; assay type: cell-based; conditions: 28 days, BMP-2 bound on FN on PEA vs soluble administration
Procedure: as §1
Cells were cultured on materials for 28 days. Noggin (50 ng/ml) was added in a set of samples and phosphate deposition was analysed by an Alkaline Phosphatase assay (Sigma, 86C-1KT). Cells were fixed with the fixative solution (citrate-acetone-formaldehide solution) at RT for 30 s. Afterwards, samples were stained with the alkaline-dye mixture and incubated at RT in darkness for 15 min. Samples were counterstained for 2 minutes with neutral red solution and rinsed in tap water.

[7] = tested on: SMAD-1, SMAD-5; test: SMAD expression by qPCR in hMSCs; assay type: cell-based, human; conditions: 5 days, absorbed or soluble format
Procedure: as §1
RNA extraction was performed after 5 days of cell culture. Cells were lysed and total RNA extracted using a Qiagen RNeasy micro kit (DNase treatment included) and the quantity and integrity of the RNA was measured with NanoDrop (ThermoScientific). Real-time qPCR was carried out and analysed to assess the expression of SMAD-1, SMAD-5 and GAPDH. Briefly, RNA samples were reverse transcribed using the QuantiTect Reverse Transcription (Applied Biosystems). Real-time qPCR was carried out using SYBR® Select Master Mix (Life Technologies) and the 7500 Real Time PCR system from Applied Biosystems. GAPDH served as the house-keeping gene, and expression for the genes of interest was normalized to GAPDH expression. […] The comparative cycle-threshold method was used for quantification of gene expression. The relative transcript levels were expressed as mean±standard deviation (n=3 for each group).

BMP-2: bone morphogenetic protein growth factor from recombinant sources (R&D Systems)
co-immunoprecipitation of integrin β1 and BMP-2 receptors [1]: clusters of β1 integrins and BMP-2 receptors were formed | phosphorylation of ERK1/2 [2]: higher | osteocalcin and osteonectin expression (transcription and protein levels) [3]: Significantly higher | Smad 1 phosphorylation ([4]; BMP-2 bound to FN assembled on PEA): significantly increased | Phosphorylation of Smads 1/5 ([4]; BMP-2 sequestered on FN): significantly higher | BMP-2 released [5]: less than 10% | alkaline phosphatase (ALP) activity [6]: higher | Smad 1 and 5 transcript level [7]: not affected
